Assay results taken from US9949979B2, “Use of inhibitors of the activity or function of PI3K” (NOVARTIS AG, priority 2011, dated 2018).
pIC50: −log10 of the molar value.

Chains of the proteins cited; added tags and fusions are not shown. A line that says so, or that is headed by a name, gives the form on record, which may keep a tag or linker.
UniProt O00329, with tags, fused parts or gaps limits assumed: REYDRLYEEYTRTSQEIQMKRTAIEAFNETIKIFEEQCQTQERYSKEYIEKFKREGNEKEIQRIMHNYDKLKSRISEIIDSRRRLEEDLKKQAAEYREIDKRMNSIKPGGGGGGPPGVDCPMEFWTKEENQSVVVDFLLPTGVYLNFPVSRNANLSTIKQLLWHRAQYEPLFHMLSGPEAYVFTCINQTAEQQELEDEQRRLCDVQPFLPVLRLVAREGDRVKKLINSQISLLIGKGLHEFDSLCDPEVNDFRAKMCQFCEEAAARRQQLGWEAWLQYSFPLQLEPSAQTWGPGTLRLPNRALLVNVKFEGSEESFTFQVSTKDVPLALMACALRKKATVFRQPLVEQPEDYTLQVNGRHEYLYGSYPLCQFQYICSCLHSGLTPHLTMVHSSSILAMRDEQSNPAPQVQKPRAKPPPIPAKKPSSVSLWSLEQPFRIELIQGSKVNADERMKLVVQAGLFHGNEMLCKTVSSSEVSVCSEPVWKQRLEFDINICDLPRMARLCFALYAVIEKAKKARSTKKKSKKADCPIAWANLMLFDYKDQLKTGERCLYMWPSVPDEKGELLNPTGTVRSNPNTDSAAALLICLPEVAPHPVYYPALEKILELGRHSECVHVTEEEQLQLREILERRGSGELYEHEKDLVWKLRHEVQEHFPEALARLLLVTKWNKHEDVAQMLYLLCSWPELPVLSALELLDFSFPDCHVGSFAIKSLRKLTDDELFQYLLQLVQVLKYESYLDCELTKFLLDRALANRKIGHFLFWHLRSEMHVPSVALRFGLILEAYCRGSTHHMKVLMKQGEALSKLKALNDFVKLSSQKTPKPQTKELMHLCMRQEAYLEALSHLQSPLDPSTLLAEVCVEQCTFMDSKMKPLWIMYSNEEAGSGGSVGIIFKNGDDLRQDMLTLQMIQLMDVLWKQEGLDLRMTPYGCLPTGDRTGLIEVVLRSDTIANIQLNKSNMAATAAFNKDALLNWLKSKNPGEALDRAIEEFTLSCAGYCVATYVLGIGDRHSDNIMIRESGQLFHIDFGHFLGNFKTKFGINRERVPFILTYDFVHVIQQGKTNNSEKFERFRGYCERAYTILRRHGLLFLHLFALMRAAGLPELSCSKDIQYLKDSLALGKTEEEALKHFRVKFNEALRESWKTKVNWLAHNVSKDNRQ

Target: PI3K delta (Homo sapiens, UniProt O00329)
Assay: Enzymatic PI3K delta isoform inhibition (lipid kinase activity, Kinase-Glo)
Format: biochemical
Set-up: for the full-length p110-d subunit are generated and fused by overlapping PCR; His tag (C); made in house; host or cells: baculovirus; Tn5 (Trichoplusia ni) or TiniPro insect cells
Conditions: Enzymatic Assay
Experimental: 1 Determination of Enzymatic PI3K Alpha and PI3K Delta Isoform Inhibition
1.1 Test of Lipid Kinase Activity
The kinase reaction is performed in a final volume of 50 μl per well of a half area COSTAR, 96 well plate. The final concentrations of ATP and phosphatidyl inositol in the assay are 5 μM and 6 μg/mL, respectively. The reaction is started by the addition of PI3 kinase, e.g. PI3 kinase δ.
p110δ. The components of the assay are added per well as follows: • 10 μl test compound in 5% DMSO per well in […]. • Total activity is determined by addition 10 μl of 5% vol/vol DMSO in the first 4 wells of column 1 and the last 4 wells of column 12. • The background is determined by addition of 10 μM control compound to the last 4 wells of column 1 and the first 4 wells of column 12. • 2 mL ‘Assay mix’ are prepared per plate: • 1.912 mL of HEPES assay buffer • 8.33 μl of 3 mM stock of ATP giving a final concentration of 5 μM per well • 1 μl of [^33P]ATP on the activity date giving 0.05 μCi per well • 30 μl of 1 mg/mL PI stock giving a final concentration of 6 μg/mL per well • 5 μl of 1 M stock MgCl2 giving a final concentration of 1 mM per well • 20 μl of the assay mix are added per well. • 2 mL ‘Enzyme mix’ are prepared per plate (x* μl PI3 kinase p110β in 2 mL of kinase buffer). […]
IC50 is determined by a four parameter curve fitting routine that comes along with “excel fit”. […]

Question: With CCC(=O)N1CC[C@H](Nc2ncnc3c2CN(c2cnc(OC)c(C(F)(F)F)c2)CC3)C1 [Example 67, 1-{(S)-3-[6-(6-Methoxy-5-trifluoromethyl-pyridin-3-yl)-5,6,7,8-tetrahydro-pyrido[4,3-d]pyrimidin-4-ylamino]-pyrrolidin-1-yl}-propan-1-one] as the compound, how does the pIC50 read?
Answer: 7.64
